From PubChem BioAssay AID504775 (Broad Institute, 2011) come the findings set out here.

SMILES strings stand for the structures. The entries are a selection whose mix differs from that of the whole data set. Calls of active or inactive are those of the source.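 Rule for the calls: active = mean replicate activation of at least 60% and every replicate at or above 60%; inconclusive = mean or all-replicate condition met, but not both; inactive = mean below 60% and not all replicates reaching 60%.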

The assay can be described thus: activators of SR-BI mediated DiI-HDL uptake, primary screen, ldlA[mSR-BI] CHO cells, DiI fluorescence (AID 504775).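 Note: 0% = median plate neutral-control signal and 100% = twice that signal.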 The following applies: 3 h, at 12.5 µM, active compounds read high, 100 = double the neutral-control signal. A digest of the protocol:
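material = CHO ldlA[mSR-BI] cells | medium = Ham's F12 with 0.5% BSA, HEPES 25 mM, pH 7.4 | reagent = fluorescent DiI-HDL, 10 µg/mL final | compound dosing = single-point compound dose | incubation = 3 h, 37 °C | measured by = bottom-read fluorescence, 550/595 nm | measure = HDL uptake via cellular fluorescence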
Take `COc1ccc(N/C(=N/P(=O)(N2CCOCC2)N2CCOCC2)N2CCOCC2)cc1`: the activation is inactive: 26.5%.
In the case of `O=[N+]([O-])c1cc(Oc2ccc([N+](=O)[O-])cc2C(F)(F)F)cc([N+](=O)[O-])c1`, the activation is inactive: -40.3%.
`Cc1cc(=O)[nH]c(N[N+](=O)[O-])n1`: the activation is inactive: 3.21%.
Take `O=C(OC1CN2CCC1CC2)C12CC3CC(CC(C3)C1)C2` (stereo unspecified): the activation is inactive: -0.382%.
Under `Cc1c2c(nc3ccccc13)SC(C(Cl)Cl)C2` (stereo unspecified) stands inactive: -3.33%; under `COc1cc(I)ccc1[As](=O)(O)O`, inactive: -5.99%; under `COc1ccc2nc(NP(=O)(c3ccccc3)c3ccccc3)sc2c1`, inactive: -3.04%.
As to `O=P1(N(CCCl)CCCl)Nc2ccccc2N1`, the activation was inactive: 25.2%.
Turning to `O=P1(N(CCCl)CCCl)OCCCN1CCCl` (stereo unspecified), the activation was inactive: 0.976%.
In the case of `CCCOP(=S)(Nc1nc(N)cc(=O)[nH]1)OCCC`, the activation was inactive: 31.9%.
As to `Nc1cccc2c([As](=O)(O)O)cccc12`, the activation was inactive: -70%.
Take `CCOP(=O)(Nc1cccc2ccccc12)OCC`: the activation is inactive: -4.58%.
As to `COc1cc(C2NCCC3(OCCO3)C2(C)C)cc(OC)c1OC` (stereo unspecified), the activation is inactive: 6.93%.
With `COc1cc(C(=O)NCC2(N3CCOCC3)CCCCC2)cc(Cl)c1OC(C)C` the figure was inactive: -25.4%.
As for `O=[As](O)(O)c1cccnc1`, the activation is inactive: 22.2%.
On to `O=C(OC1CN2CCC1CC2)c1ccc(Cl)cc1` (stereo unspecified), for which the activation was inactive: 5.91%.
Turning to `O=[As](O)(c1cccc(O)c1)c1cccc(O)c1`, the activation is inactive: -3.64%.
Under `Cc1cccc(OCC(=O)OC2CN3CCC2CC3)c1` (stereo unspecified) stands inactive: 28.3%.
With `NC(=O)Nc1ccc([As](=O)(O)O)cc1` the figure was inactive: 5.85%; with `CN(C(=O)Cc1ccc(Cl)c(Cl)c1)[C@H]1CC[C@@]2(CCCO2)C[C@@H]1N1CCCC1`, inactive: 12.4%.
With `CN(C)C(=O)c1cc([N+](=O)[O-])cc2c1-c1c(cc([N+](=O)[O-])cc1[N+](=O)[O-])C2=O` the figure was inactive: -5.49%; with `O=[N+]([O-])c1ccc2c(c1)nnn2O`, inactive: 3%.
Take `CCOP1(=S)c2c(C)nn(CCC#N)c2N=C(c2ccc(F)cc2)N1C` (stereo unspecified): the activation is inactive: -27.3%.
Under `CN(C(=O)Cc1ccccc1)[C@@H]1CC[C@]2(CCCO2)C[C@H]1N1CCCC1` stands inactive: -3.6%; under `N#CCCN(C(=O)COC(=O)C(O)(c1ccccc1)c1ccccc1)c1ccc(F)cc1`, inactive: 5.9%.
`O=P(Nc1nccs1)(c1ccccc1)c1nc2ccccc2s1` (stereo unspecified): the activation is inactive: -10.4%.
Under `O=P(Nc1nccs1)(Oc1ccccc1)Oc1ccccc1` stands inactive: 8.19%; under `CCOP1(=S)c2c(C)nn(CCC#N)c2N=C(c2ccccc2F)N1C` (stereo unspecified), inactive: -15.4%; under `O=C(O)COc1ccc([As](=O)(O)O)cc1[N+](=O)[O-]`, inactive: -1.32%.
As to `Nc1ccccc1[As](=O)(O)c1ccccc1`, the activation is inactive: 7.39%.
For the molecule `O=P1(Nc2ncccn2)COc2ccccc2OC1`, the activation was inactive: -29.9%.
With `NS(=O)(=O)c1cccc(NC(=O)COC(=O)C(O)(c2ccccc2)c2ccccc2)c1` the figure was inactive: -2.74%; with `O=P1(Nc2ccc(Br)cn2)COc2ccccc2OC1`, inactive: 8.65%.
With `O=[As](O)(c1cccs1)c1cccs1`, the activation was inactive: 15.6%.
With `Nc1cccc([As](=O)(O)c2ccccc2)c1` the figure was inactive: 22.4%; with `Cc1ccc(C(=O)OC2CN3CCC2CC3)cc1` (stereo unspecified), inactive: 47%.
On to `CC1CCC(C(C)C)C(OP(=O)(Nc2ccccn2)c2ccccc2)C1` (stereo unspecified), for which the activation was inactive: 9.44%.
`Cc1nn(-c2ccccc2)c2c1P(=O)(N1CCOCC1)N(C)C(c1ccccc1)=N2` (stereo unspecified): the activation is inactive: 22.1%.
Consider `CCCC1OP(=O)(Nc2ccccc2)OCC1CC` (stereo unspecified), for which the activation was inactive: 5.51%.
With `O=C(/C=C/c1ccccc1)OC1CN2CCC1CC2` (stereo unspecified) the figure was inactive: 5.84%; with `CN(C)C1(CNC(=O)c2ccc(S(C)(=O)=O)cc2)CCCCC1`, inactive: 7.09%.
As to `COc1ccccc1CNC(=O)COC(=O)C(O)(c1ccccc1)c1ccccc1`, the activation is inactive: -2.54%.
Consider `CC1(CBr)Cn2c(nc3ccccc3c2=O)S1` (stereo unspecified), for which the activation was inactive: 10%.
Under `CN(C(=O)Cc1ccc(Cl)c(Cl)c1)[C@@H]1CCCC[C@H]1N1CCCC1` stands inactive: 16.3%.
With `CC(C)/C=N\N=C(\N)N[N+](=O)[O-]` the figure was inactive: -2.89%.
Under `CCOP(=O)(Nc1ccc(C)cn1)OCC` stands inactive: 17.8%.
For the molecule `CCOP(=O)(NC(=NC(C)c1ccccc1)NC(C)c1ccccc1)OCC` (stereo unspecified), the activation is inactive: -2.2%.
With `CCC1=CC2Cc3nc4ccc(Cl)cc4c(N)c3C(C1)C2` (stereo unspecified) the figure was inactive: 11%; with `O=P1(Nc2ccccn2)COc2ccccc2OC1`, inactive: 5.6%; with `CC(C)(C)C(=O)NC(Sc1ncccn1)C(Cl)(Cl)Cl` (stereo unspecified), inactive: 5.07%.
Regarding `Clc1n[nH]nc1-c1nn[nH][15n]1`, the activation was inactive: 15.6%.
